# Measured values as given in patent publication US20090312316A1, “NOVEL COMPOUNDS” (priority 2006, published 2009).
# Assay: Cleavage studies in rat blood to give the parent acid 6
# Type: in vitro ADME
# Conditions: rat blood (EDTA), 0.01 mg/mL, 37° C.
# Description: The sample was diluted to a volume of 1 mL by addition of 0.1 M aqueous KH2PO4. […] An Oasis MAX cartridge (1 cc/30 mg) was conditioned with 1 mL MeOH and 1 mL water successively. The supernatant was transferred to the conditioned cartridge at a flow rate of 1-2 mL/min. […] The extracts were transferred to autosampler vials and immediately analysed by LC/MS. […] LCMS was performed on a Bruker Daltonics Esquire 3000+ mass spectrometer equipped with an electrospray source coupled to the HPLC. […] Injection volume: 0.05 mL. HPLC was performed on a Waters Symmetry C8 3.5 micron column, 50 mm×2.1 mm, running a mobile phase of: mobile phase A: 0.1% formic acid in water; mobile phase B: 0.1% Formic acid in acetonitrile; flow rate: 1 mL/minute. […] Fragmentation of this molecular species results in a spectrum with intense ions at m/z 271 and 412. The daughter ion at m/z 412 can be ideally selected for quantification.
substance,measurement,setting,value
17-des(cyclopentane-2-carboxylic acid)-17-(cyclobutane-2-carboxylic acid)borrelidin (2-(2-hydroxyethyl)pyridine ester [Compound 8],half-life for the cleavage to parent compound 6,,too rapid to calculate
same,cleavage to give the parent compound 6,up to 180 minutes,rapidly cleaved
